The values below come from patent US5728829A, “Process of preparing benzodiazepine compounds useful as antagonists of CCK or of gastrine” (Ferring-Research Limited, priority 1993, dated 1998).

The test system of this experiment is pentagastrin-stimulated gastric acid secretion. The experiment can be described thus: Measurement of inhibition of pentagastrin-stimulated gastric acid secretion in rat. As to conditions: intravenous.

`Cc1cccc(NC(=O)N[C@@H]2N=C(c3ccccc3)c3ccccc3N(C)C2=O)c1`: where the note is “at 0.3 μmol/kg, mean for 3-5 animals”, the “% Inhibition (maximum inhibition of gastric acid secretion)” value is listed as 28%. Further, for the setting “table 3, "Relative ED50 values", anaesthetised rat, pentagastrin 15 μg/Kg/hr”, the “ED50 (dose reducing secreted gastric acid to 50% of the maximum level)” value came out at 4.2 µmol/kg.
